Compound activity from PubChem.
Only some compounds are listed: those with a hit (about 4.2% of all), similar ones and a draw of the others.
HDAC3 inh: human HDAC3 inhibition; O15379; recombinant HDAC3, fluorogenic peptide/trypsin coupled, fluorescence; inhibition, % at 8.3 µM; 0.15% of 320,000 active; in the data active means inhibition above about 26%, passing the limit was not always enough; inconclusive means no clear call, values can overlap the other calls
UUG fidelity: modulators of yeast start codon fidelity, primary screen, whole organism, S. cerevisiae, single point, plate reader; activity score, % at 18.7 µM; actives 0.13% (n = 350,000); S. cerevisiae UUG-firefly luciferase reporter, luminescence/redox ratio;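 active = replicate mean at a twofold rise or more, about +100% in these data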;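 also: firefly luciferase made from a UUG start codon reports start codon fidelity; reporter light over untreated wells divided by growth signal over untreated wells; some hits fall short of that in this replicate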
ALR H2O2 inh: human ALR oxidase inhibition via reduced H2O2; purified ALR, DTT oxidation, H2O2 HRP-luminol luminescence; P55789; 290,000 tested, 3.8% active; AID 485317; inhibition, % (no concentration beside the values);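 active means mean and each replicate at 75% or more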;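 further: stock transfer was 7.5 nL into about 7.5 µL; 0% = neutral wells and 100% = wells with inactivated enzyme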
NALP1 inh: inhibitors of NALP1 inflammasome in yeast; 0.61% of 280,000 active; S. cerevisiae NALP1/ASC/caspase-1 growth, X-gal OD620, 72 h; inhibition, % at 10 µM; in the data active means inhibition mostly above about 24%, no sharp cut-off; inactive means mostly below about 32%
MC4R antag cAMP: human MC4R antagonism in cAMP assay; P32245; MC4R-expressing cells, MTII-stimulated cAMP, LANCE TR-FRET; inhibition, % at 6.5 µM; 0.48% of 360,000 active; AID 540295;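 active means inhibition above its plate's cutoff, the mean of tested wells on that plate plus 3 SD, cut at about 29% in these data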;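 further: 0% = Melanotan II alone and 100% = Melanotan II plus saturating MCL0020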
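Material: U2OS-MC4R stable cell line | Reagent: Melanotan II challenge after compound preincubation | Doses: One concentration, 6.5 µM nominal | Incubation: 30-min compound preincubation, 1-h Melanotan II challenge, 1-h detection, room temperature | Signal: TR-FRET cAMP assay | Replicates: One well per compound, no replicates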
MC4R barr agon: agonists of human melanocortin 4 receptor (MC4R) beta-arrestin; AID 540308; 0.98% of 360,000 active; U2OS MC4R beta-arrestin complementation, luminescence; percent of melanotan II response, DMSO zero; activation, % at 8.9 µM; P32245;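 active means activation above a per-plate cutoff, the mean activation of sample wells on that plate plus 3 SD, cut at about 8% in these data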
* = called active by the depositor; ? = inconclusive; . = no result given.

Short forms: A = HDAC3 inh; B = UUG fidelity; C = ALR H2O2 inh; D = NALP1 inh; E = MC4R antag cAMP; F = MC4R barr agon
1. O=C1CS/C(=N\C(=O)N2c3ccccc3Sc3ccccc32)N1
  A: 8.1; B: -13.9; C: 98.9*; D: 30.6; E: 2.4; F: -1.2
2. O=C1CSC(=Nc2ccccc2)N1
  A: 2.0; B: -20.1; C: -15.9; D: 6.8; E: 12.3; F: -1.0
3. CCN(CC)c1ccc(NS(=O)(=O)c2cn(C)c(=O)n(C)c2=O)c(C)c1
  A: 5.7; B: -14.4; C: 98.9*; D: 20.2; E: -4.4; F: 0.5
4. c1ccc2sc(NCC3CCCO3)nc2c1 (stereo not given)
  A: 0.2; B: .; C: -6.9; D: 4.8; E: 16.0; F: -3.4
5. CC1=CC(=C(C#N)c2nc3ccccc3s2)C=C(C)N1CC1CCCO1 (stereo not given)
  A: -2.1; B: .; C: 95.3*; D: 2.6; E: 8.8; F: -2.1
6. COc1cccc(-c2nc(CS(=O)CC(=O)O)c(C)o2)c1 (stereo not given)
  A: -7.6; B: -15.9; C: 99.0*; D: 8.0; E: -0.9; F: 0.6
7. Cc1cccc(-c2nc(CS(=O)CC(=O)NCCc3ccccc3)c(C)o2)c1 (stereo not given)
  A: 0.1; B: .; C: 33.7; D: 16.9; E: -1.0; F: -0.9
8. Cc1ccccc1-c1nc(CS(=O)CC(=O)NC(C)CCc2ccccc2)c(C)o1 (stereo not given)
  A: 3.0; B: 18.3; C: -14.3; D: 5.6; E: 3.6; F: -2.8
9. COc1cccc(-c2nc(CS(=O)CC(=O)NCCc3ccccc3)c(C)o2)c1 (stereo not given)
  A: 4.6; B: 0.4; C: 98.7*; D: 7.1; E: 15.1; F: 0.8
10. COc1cccc(-c2nc(CS(=O)CC(=O)NC(C)CCc3ccccc3)c(C)o2)c1 (stereo not given)
  A: 1.9; B: -6.9; C: 98.2*; D: 13.4; E: 9.7; F: 0.6
11. CCC(C)NC(=O)CS(=O)Cc1nc(-c2cccc(OC)c2)oc1C (stereo not given)
  A: 0.8; B: -9.1; C: 99.2*; D: 3.7; E: 3.4; F: 0.4
12. O=C(c1cc(-c2ccc(O)cc2)on1)N1CCCCCC1
  A: 1.9; B: -41.0; C: 99.3*; D: 27.4; E: 1.6; F: -0.6
13. O=C(c1cc(-c2ccc(Cl)cc2)on1)N1CCCCCC1
  A: -7.0; B: -10.3; C: -5.3; D: 19.7; E: 0.0; F: 0.8
14. O=C(NNc1c2ccccc2nc2ccccc12)c1ccccc1Cl
  A: -4.3; B: -18.0; C: -6.2; D: 14.4; E: -4.0; F: -2.0
15. O=C(NNc1c2ccccc2nc2ccccc12)c1ccccc1O
  A: -4.7; B: -8.6; C: 98.8*; D: 17.1; E: -9.2; F: -5.2

Along the list, as entered above.
NALP1 inh, entries 2–11, in order: 6.8, 20.2, 4.8, 2.6, 8.0, 16.9, 5.6, 7.1, 13.4, 3.7
MC4R antag cAMP, entries 2–11, in order: 12.3, -4.4, 16.0, 8.8, -0.9, -1.0, 3.6, 15.1, 9.7, 3.4

Going on with the list.
Short forms: A = HDAC3 inh; B = UUG fidelity; C = ALR H2O2 inh; D = NALP1 inh; E = MC4R antag cAMP; F = MC4R barr agon
16. O=C(NNc1c2ccccc2nc2ccccc12)c1ccc(O)cc1O
  A: 7.9; B: 1.3; C: 98.3*; D: 3.6; E: 0.3; F: 1.3
17. CCNC(=S)NNC(=O)c1cc(-c2cccnc2)nc2ccccc12
  A: 2.6; B: .; C: 88.0*; D: 8.8; E: -0.6; F: -1.4
18. CCCNC(=S)NNC(=O)c1cc(-c2cccnc2)nc2ccccc12
  A: -1.8; B: -11.8; C: 7.7; D: -0.1; E: 6.8; F: 1.8
19. COc1ccccc1CNC(=O)CN(c1cccc([N+](=O)[O-])c1)S(C)(=O)=O
  A: 8.1; B: 9.7; C: -6.0; D: -4.7; E: 25.8; F: -1.8
20. Cc1ccccc1CNC(=O)CN(c1cccc([N+](=O)[O-])c1)S(C)(=O)=O
  A: 3.1; B: -11.6; C: -7.7; D: 12.8; E: 30.3*; F: 1.5
21. CC(=O)N(C)C[C@@H]1Oc2cc(-c3ccc(C)cc3)ccc2S(=O)(=O)N([C@H](C)CO)C[C@@H]1C
  A: .; B: 10.4; C: .; D: .; E: .; F: .
22. CCOc1ccc2c(c1)C(c1cccs1)=NNC(c1cccnc1)=N2
  A: 6.1; B: -3.4; C: .; D: 29.9*; E: 6.6; F: -2.4
23. Cc1cc(OCc2nc3ccccc3s2)ccc1N
  A: 0.5; B: .; C: 98.1*; D: -1.1; E: -0.7; F: -0.3
24. CN1c2ccc(Br)cc2[C@H]2[C@H](CCN2C(=O)C2CCOCC2)[C@@H]1CO
  A: .; B: 15.1; C: .; D: .; E: .; F: .
25. CCS(=O)(=O)N1Cc2ccccc2CC1C(=O)N1CCN(c2ccccc2)CC1 (stereo not given)
  A: 5.3; B: -3.4; C: 97.8*; D: 3.6; E: 1.7; F: -1.0
26. CCCN(C)C[C@H]1OCCCC[C@@H](C)Oc2ccc(NS(=O)(=O)c3cn(C)cn3)cc2C(=O)N([C@H](C)CO)C[C@@H]1C
  A: .; B: 4.2; C: .; D: .; E: .; F: .
27. COc1ccc(C(=O)CSc2n[nH]c(C)n2)cc1[N+](=O)[O-]
  A: 7.0; B: .; C: 82.3*; D: 13.0; E: 9.6; F: -0.2
28. COc1ccc(C(=O)CSc2n[nH]c(-c3ccco3)n2)cc1
  A: 0.1; B: -9.0; C: -19.1; D: 2.4; E: 0.3; F: 1.3
29. O=C(CSc1n[nH]c(-c2ccccc2)n1)c1ccc(O)c(O)c1
  A: 2.7; B: -16.0; C: 98.8*; D: 5.8; E: -6.2; F: -0.7
30. CCc1nc(SCC(=O)c2ccc(C)c(C)c2)n[nH]1
  A: 8.1; B: -26.3; C: 93.1*; D: -1.5; E: 3.0; F: -0.1

The listing continues.
Short forms: A = HDAC3 inh; B = UUG fidelity; C = ALR H2O2 inh; D = NALP1 inh; E = MC4R antag cAMP; F = MC4R barr agon
31. Cc1ccc(C(=O)CSc2n[nH]c(-c3ccco3)n2)cc1C
  A: -0.6; B: -14.1; C: 97.4*; D: -3.4; E: -4.8; F: -3.0
32. CCCN(C)C[C@H]1OCCCC[C@H](C)Oc2ccc(NC(=O)CCC(F)(F)F)cc2C(=O)N([C@H](C)CO)C[C@H]1C
  A: .; B: 12.3; C: .; D: .; E: .; F: .
33. Cc1cc(SCC(=O)c2ccc(O)c(O)c2)nc2ccccc12
  A: -0.1; B: .; C: 99.6*; D: -2.3; E: 8.4; F: -2.1
34. Cc1c(N=C2NC(=O)/C(=C/c3ccc(O)cc3)S2)c(=O)n(-c2ccccc2)n1C
  A: 14.6; B: .; C: 99.2*; D: 33.6; E: -33.5; F: -0.1
35. O=C1NC(=NCc2ccccc2)S/C1=C/c1ccc(O)cc1
  A: 0.7; B: .; C: 93.8*; D: 31.9; E: -23.1; F: -1.6
36. Cc1c(N=C2NN=C(c3ccc(Cl)cc3)CS2)c(=O)n(-c2ccccc2)n1C
  A: 1.0; B: 5.4; C: 97.4*; D: 7.8; E: 3.6; F: -2.3
37. C[C@H]1CN([C@@H](C)CO)C(=O)c2cc(-c3ccc(F)cc3)cnc2O[C@@H]1CN(C)C(=O)NC1CCCC1
  A: .; B: 0.9; C: .; D: .; E: .; F: .
38. COc1ccc(NC(=O)Nc2ccc3c(c2)C(=O)N([C@@H](C)CO)C[C@H](C)[C@H](CN(C)Cc2ccc(C(=O)O)cc2)OCCCC[C@@H](C)O3)cc1
  A: .; B: 47.0; C: .; D: .; E: .; F: .
39. COc1ccc(C2CC23N=C(c2ccccc2)OC3=O)cc1 (stereo not given)
  A: ?; B: .; C: 96.8*; D: 31.3; E: 4.2; F: -2.1
40. CC(C)(O)C#Cc1ccc([C@@H]2C[C@H]3CN(c4ccccc4)C(=O)[C@]34CCCN24)s1
  A: -4.8; B: .; C: 91.5*; D: 13.4; E: 7.4; F: -1.0
41. CC(Oc1ccc(Cl)cc1Cl)C(=O)Nc1ccc(O)cc1 (stereo not given)
  A: 17.4; B: .; C: 98.3*; D: 10.3; E: 1.3; F: -0.1
42. CC(Oc1ccc(Cl)cc1Cl)C(=O)Nc1cccc(O)c1 (stereo not given)
  A: 17.9; B: -2.5; C: 23.0; D: 3.7; E: 12.4; F: -0.9
43. Clc1ccc(N2CCN(c3cnc4ccccc4n3)CC2)cc1
  A: 1.7; B: -30.1; C: -1.9; D: 49.0; E: 5.5; F: 4.6
44. O=Cc1cnc(N2CCN(c3ccccc3)CC2)s1
  A: 3.4; B: .; C: .; D: 39.1*; E: -2.8; F: -2.1
45. c1ccc(N2CCN(c3cnc4ccccc4n3)CC2)cc1
  A: 6.8; B: -17.0; C: .; D: 39.3*; E: -1.8; F: -1.5
46. CC1Cc2ccccc2N1CC(=O)Nc1ccc(S(=O)(=O)N(C)C)cc1 (stereo not given)
  A: -2.5; B: .; C: -4.3; D: .; E: 1.7; F: -0.1
47. CC1Cc2ccccc2N1Cc1cccc(S(=O)(=O)N(C)C)c1 (stereo not given)
  A: -5.8; B: -14.4; C: 99.0*; D: 16.7; E: 1.3; F: 1.4

Structures from the list above with fluorine (2):
Short forms: A = HDAC3 inh; B = UUG fidelity; C = ALR H2O2 inh; D = NALP1 inh; E = MC4R antag cAMP; F = MC4R barr agon
32. CCCN(C)C[C@H]1OCCCC[C@H](C)Oc2ccc(NC(=O)CCC(F)(F)F)cc2C(=O)N([C@H](C)CO)C[C@H]1C
  A: .; B: 12.3; C: .; D: .; E: .; F: .
37. C[C@H]1CN([C@@H](C)CO)C(=O)c2cc(-c3ccc(F)cc3)cnc2O[C@@H]1CN(C)C(=O)NC1CCCC1
  A: .; B: 0.9; C: .; D: .; E: .; F: .
